{"sequences": {"note": "The chains behind the UniProt entries cited, without tags or fusion partners.", "UniProt Q8QGU2, whole entry": "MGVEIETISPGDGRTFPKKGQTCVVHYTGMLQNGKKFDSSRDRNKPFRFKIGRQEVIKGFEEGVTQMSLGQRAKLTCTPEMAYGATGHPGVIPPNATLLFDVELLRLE"}, "source": "ChEMBL document CHEMBL1130475", "about": "(Bioorg Med Chem Lett, 1997)", "biological_target": "FK506 binding protein 12 (Gallus gallus, UniProt Q8QGU2)", "test": "Inhibition of binding to FKBP12 receptor"}
{"smiles": "CCC(C)(C)C(=O)C(=O)N1CCCCC1C(=O)OC(CCc1ccccc1)CCc1ccccc1", "note": "(stereo unspecified)", "values": [{"measurement": "Ki", "value": 20, "unit": "nM"}]}
